One molecule from patent US20240301055A1 (IMMUTEP PARC CLUB ORSAY, published 2024) can be followed below.

This experiment addresses T1, human LAG-3 protein (hLAG-3, CD223) on hLAG-3-transfected CHO cells or on activated human T cells (human, UniProt P18627 23-525).
T1 sequence (looked up): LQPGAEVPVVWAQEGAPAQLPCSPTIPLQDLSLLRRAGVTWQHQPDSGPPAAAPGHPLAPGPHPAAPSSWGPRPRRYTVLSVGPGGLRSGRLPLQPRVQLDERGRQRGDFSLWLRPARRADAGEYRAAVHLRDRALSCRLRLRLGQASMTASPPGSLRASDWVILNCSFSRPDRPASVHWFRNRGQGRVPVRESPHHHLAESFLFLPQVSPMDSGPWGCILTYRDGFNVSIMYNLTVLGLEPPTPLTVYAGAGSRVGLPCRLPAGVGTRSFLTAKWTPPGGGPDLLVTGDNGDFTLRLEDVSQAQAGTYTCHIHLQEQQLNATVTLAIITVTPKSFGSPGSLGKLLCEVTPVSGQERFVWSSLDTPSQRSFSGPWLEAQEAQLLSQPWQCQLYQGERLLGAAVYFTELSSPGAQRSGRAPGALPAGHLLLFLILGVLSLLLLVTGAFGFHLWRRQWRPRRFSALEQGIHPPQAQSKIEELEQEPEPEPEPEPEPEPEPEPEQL
The experiment is described as follows: cell-based or functional assay.

B1: IMP731 (chimeric A9H12 with human IgG1 Fc region and human Ckappa) (antibody, V domains shown)
VH: QVQLKESGPGLVAPSQSLSITCTVSGFSLTAYGVNWVRQPPGKGLEWLGMIWDDGSTDYNSALKSRLSISKDNSKSQVFLKMNSLQTDDTARYYCAREGDVAFDYWGQGTTLTVSS
VL: DIVMTQSPSSLAVSVGQKVTMSCKSSQSLLNGSNQKNYLAWYQQKPGQSPKLLVYFASTRDSGVPDRFIGSGSGTDFTLTISSVQAEDLADYFCLQHFGTPPTFGGGTKLEIKR
With B1, the “ADCC on CMV peptide-activated human T cells, EC50 for CD4+ T cells” value came to 1 ng/mL and the “ADCC on CMV peptide-activated human T cells, EC50 for CD8+ T cells” value was found to be 0.7 ng/mL.
